The record followed here is patent US11390664B2, “Antibodies that potently neutralize hepatitis B virus and uses thereof” (priority 2015, dated 2022).

The experiment relates to HBV (genotype D). As to the kind of experiment: Combination therapy in chronically HBV infected humanized uPA/SCID mice. The format is in vivo. The note with it: 4 weeks treatment from week 8 post-infection; HBC34 1 mg/kg i.p. twice per week; lamivudine 0.4 mg/ml in drinking water.

For `Nc1ccn([C@@H]2CS[C@H](CO)O2)c(=O)n1` [lamivudine, reference compound], the “HBsAg drop (reduction)” value was 0.2 log and the “mean reduction of viremia” value was 1.3 log.
